Laboratory results published in patent US20200384001A1, “COMPOSITION FOR PREVENTION OR TREATMENT OF NEUROINFLAMMATORY DISEASE, CONTAINING PROTEIN TYROSINE PHOSPHATASE” (KYUNGPOOK NATIONAL UNIVERSITY INDUSTRY - ACADEMIC …, priority 2015, published 2020).
Read-outs that look alike come from different tables or passages of the source.

Tests used:
[1] = test system: primary microglia; settings: 24 hours after iPTP1B treatment (FIG. 10)
[2] = test system: HAPI cells
[3] = test system: BV2 microglia; settings: BV2, 24 hours after iPTP1B treatment, concentrations used in the test (FIG. 9)

Measured: cytotoxicity (MTT assay)

(S)-4-(((S)-1-(12-azanyl)-3-(4-(difluoro(phosphono)methyl)phenyl)-1-oxopropan-2-yl)amino)-3-((S)-3-(4-(difluoro(phosphono)methyl)phenyl)-2-pentadecanamidopropanamido)-4-oxobutanoic acid [iPTP1B]
no significant level of cytotoxicity: [1] | [2]; LPS experiment, 24 hours after iPTP1B treatment (FIG. 11) | [2]; TNFα experiment, 24 hours after iPTP1B treatment (FIG. 12) | [3]
